Earlier results, collected in publication PMC6107785, “Thiodipeptides targeting the intestinal oligopeptide transporter as a general approach to improving oral drug delivery” (European Journal of Medicinal Chemistry, 2018).

Design: method as in PMID 2109643
Settings: ibuprofen 6 mg kg^−1 oral, rat; reference value ref 26; cited from earlier work

CC(C)Cc1ccc(C(C)C(=O)O)cc1 (stereo not shown) [Ibuprofen]
Relative F: 100 [26] %
